Assay results: patent US20240239769A1, “CO-CRYSTAL OF MELANOCORTIN RECEPTOR AGONIST COMPOUND AND VANILLIN AND METHOD FOR PREPARING SAME” (LG CHEM, LTD., priority 2021, published 2024)

Description: Solubility indicates the result of measurement based on the final volume of water added to a sample when it is visually confirmed that the sample is completely dissolved by adding water to the sample. The solubility of the actual sample may be higher than the measured solubility. Solubility was measured based on the final volume of water added to a sample when it was visually confirmed that the sample was completely dissolved by adding water to the sample.

solubility: less than 1 mg/mL
Substance: Co-Crystal of N-((3S,5S)-1-((3S,4R)-1-(tert-butyl)-4-(4-chlorophenyl)pyrrolidine-3-carbonyl)-5-(morpholine-4-carbonyl)pyrrolidin-3-yl)-N-((1s,4R)-4-methylcyclohexyl)isobutyramide and Vanillin [Example 2]
